Source: patent publication US20250074891A1 (Anaxis Pharma Pty Ltd., priority 2021, published 2025)

By UniProt entry, the sequences of proteins in these tests, tags left out.
UniProt Q8NB16, whole entry: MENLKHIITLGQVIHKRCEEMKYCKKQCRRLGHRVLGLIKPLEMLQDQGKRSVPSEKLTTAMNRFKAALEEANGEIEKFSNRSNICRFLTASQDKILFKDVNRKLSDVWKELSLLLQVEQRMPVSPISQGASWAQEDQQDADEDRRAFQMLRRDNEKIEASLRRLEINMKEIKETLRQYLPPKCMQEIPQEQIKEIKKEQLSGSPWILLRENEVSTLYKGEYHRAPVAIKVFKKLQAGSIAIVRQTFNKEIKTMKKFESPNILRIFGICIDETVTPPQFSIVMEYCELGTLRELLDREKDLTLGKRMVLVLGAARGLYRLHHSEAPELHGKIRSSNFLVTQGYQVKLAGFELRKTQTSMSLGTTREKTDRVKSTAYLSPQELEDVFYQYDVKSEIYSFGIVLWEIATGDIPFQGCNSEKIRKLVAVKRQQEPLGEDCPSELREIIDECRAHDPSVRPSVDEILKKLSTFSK

What was measured:
[1] = tested on: U937 cells; experiment: Counter screen: cell viability without TSQ cocktail (off-target effect); details: read-out: Off-target effect (IC50 cell-based assay), Table 38
[2] = target: MLKL (full length) (Homo sapiens (Human), UniProt Q8NB16); experiment: KINOMEscan binding assay, MLKL (full length); details: read-out: MLKL (KD), Table 36
[3] = tested on: U937 human histiocytic leukemia cell line; experiment: Cellular assay: inhibition of TSQ induced necroptosis (CellTitre-Glo); details: read-out: Inhibition of TSQ-induced necroptosis (IC50 cell-based assay); U937 cells, TSQ cocktail, 48 hours, Table 38
[4] = target: endogenous MLKL in U937 (Homo sapiens (Human), UniProt Q8NB16); experiment: Degradation assay: degradation of endogenous MLKL in human cells (Western blot); details: read-out: Degradation of endogenous MLKL in U937 (DC50 cell-based assay in μM), 24 h incubation

| Structure (SMILES) | IC50 [1] [µM] | Kd [2] [µM] | IC50 [3] [µM] | DC50 [4] [µM] |
| --- | --- | --- | --- | --- |
| CCS(=O)(=O)Nc1ccc(-c2n[nH]c(Nc3ccc(C(=O)NCCC(=O)N[C@H](C(=O)N4C[C@H](O)C[C@H]4C(=O)NCc4ccc(-c5scnc5C)cc4)C(C)(C)C)cn3)c2C(N)=O)cc1O[C@@H](C)c1ccc(F)cc1 | > 10 | < 0.01 | 1 to 10 | 1 to 10 |
| CCS(=O)(=O)Nc1ccc(-c2n[nH]c(Nc3ccnc(OCCNC(=O)COc4cccc5c4C(=O)N(C4CCC(=O)NC4=O)C5=O)c3)c2C(N)=O)cc1 (stereo not shown) | > 10 | < 0.01 | > 10 |  |
